From patent US9079895B2, “Morpholino compounds, uses and methods” (University of Dundee, priority 2012, dated 2015)
Where “and” joins values, the source holds several entries; their conditions need not be identical. Equal values may be shown once. Read-outs that look alike come from different tables or passages of the source.

Sequences of proteins named here, by UniProt entry; tags and fusion partners are left off.
UniProt P08908, whole entry: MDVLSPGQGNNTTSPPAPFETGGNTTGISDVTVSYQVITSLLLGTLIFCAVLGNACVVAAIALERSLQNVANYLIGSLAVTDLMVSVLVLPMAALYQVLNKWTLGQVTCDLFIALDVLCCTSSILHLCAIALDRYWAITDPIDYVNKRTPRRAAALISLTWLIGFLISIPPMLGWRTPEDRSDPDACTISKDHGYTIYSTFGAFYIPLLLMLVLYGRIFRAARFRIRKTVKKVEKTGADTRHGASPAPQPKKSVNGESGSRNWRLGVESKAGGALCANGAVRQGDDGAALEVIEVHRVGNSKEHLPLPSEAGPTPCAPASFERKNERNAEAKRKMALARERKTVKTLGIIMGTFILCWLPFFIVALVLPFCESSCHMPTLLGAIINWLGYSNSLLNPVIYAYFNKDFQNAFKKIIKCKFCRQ
UniProt P25100, whole entry: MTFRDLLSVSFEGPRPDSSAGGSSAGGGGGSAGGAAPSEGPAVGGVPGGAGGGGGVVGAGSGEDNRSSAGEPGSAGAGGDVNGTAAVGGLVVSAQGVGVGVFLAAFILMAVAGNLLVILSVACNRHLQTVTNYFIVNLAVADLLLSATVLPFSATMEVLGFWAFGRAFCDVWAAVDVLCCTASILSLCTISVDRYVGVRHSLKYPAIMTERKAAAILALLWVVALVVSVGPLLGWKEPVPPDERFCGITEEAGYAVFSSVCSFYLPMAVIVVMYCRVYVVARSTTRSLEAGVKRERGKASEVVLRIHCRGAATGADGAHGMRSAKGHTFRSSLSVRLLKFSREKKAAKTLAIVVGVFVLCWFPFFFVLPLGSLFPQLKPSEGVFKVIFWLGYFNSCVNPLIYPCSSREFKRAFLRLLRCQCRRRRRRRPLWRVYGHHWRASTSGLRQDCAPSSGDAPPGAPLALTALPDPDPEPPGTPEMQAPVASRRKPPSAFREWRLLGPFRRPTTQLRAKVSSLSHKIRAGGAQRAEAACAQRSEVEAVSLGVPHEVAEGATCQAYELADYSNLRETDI
UniProt P21917, whole entry, species assumed: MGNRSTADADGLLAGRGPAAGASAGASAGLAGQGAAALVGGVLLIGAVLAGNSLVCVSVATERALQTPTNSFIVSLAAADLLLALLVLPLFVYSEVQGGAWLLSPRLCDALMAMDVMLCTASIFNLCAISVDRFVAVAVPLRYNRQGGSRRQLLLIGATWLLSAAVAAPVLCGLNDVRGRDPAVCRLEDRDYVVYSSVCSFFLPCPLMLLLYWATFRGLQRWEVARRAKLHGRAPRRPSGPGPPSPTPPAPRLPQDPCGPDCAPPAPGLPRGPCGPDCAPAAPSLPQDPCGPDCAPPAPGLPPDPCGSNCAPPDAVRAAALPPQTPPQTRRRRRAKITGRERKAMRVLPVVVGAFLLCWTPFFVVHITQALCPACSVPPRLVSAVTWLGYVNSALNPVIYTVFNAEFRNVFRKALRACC
UniProt P41595, whole entry: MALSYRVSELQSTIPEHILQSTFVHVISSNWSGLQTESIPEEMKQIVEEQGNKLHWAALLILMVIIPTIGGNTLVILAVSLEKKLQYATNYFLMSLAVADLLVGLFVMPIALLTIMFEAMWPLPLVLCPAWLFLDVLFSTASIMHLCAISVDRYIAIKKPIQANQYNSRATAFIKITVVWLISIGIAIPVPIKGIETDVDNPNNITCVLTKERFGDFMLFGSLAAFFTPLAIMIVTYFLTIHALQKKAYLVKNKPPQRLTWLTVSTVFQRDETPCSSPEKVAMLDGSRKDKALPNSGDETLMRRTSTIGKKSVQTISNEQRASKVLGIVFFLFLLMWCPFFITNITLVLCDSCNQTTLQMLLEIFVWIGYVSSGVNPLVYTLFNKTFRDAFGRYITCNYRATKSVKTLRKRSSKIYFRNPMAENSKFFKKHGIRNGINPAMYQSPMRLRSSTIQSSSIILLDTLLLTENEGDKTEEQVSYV

What was measured:
5HT1a receptor = 5HT1a receptor (Homo sapiens (Human), UniProt P08908); experiment: Secondary radioligand binding assay, 5HT1a; details: average of at least two experiments
[1] = molecular target: Alpha1D adrenergic receptor (Homo sapiens (Human), UniProt P25100); experiment: Secondary radioligand binding assay, Alpha1D; details: average of at least two experiments
dopamine D4 receptor = dopamine D4 receptor (Homo sapiens (Human), UniProt P21917); experiment: Secondary radioligand binding assay, D4
5HT2b receptor = 5HT2b receptor (Homo sapiens (Human), UniProt P41595); experiment: Secondary radioligand binding assay, 5HT2b; details: average of at least two experiments;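 also: competition binding against a radioligand on membranes from transfected cell lines, 1.5 h incubation at room temperature, filter-retained radioactivity counted by liquid scintillation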
[2] = receptor binding, average of at least two experiments, read-out: Ki D4

Compound | Ki (5HT1a receptor) [nM] | Ki (dopamine D4 receptor; [2]) | also measured
O=C(CN1CCO[C@@H](COc2ccccn2)C1)N1CCc2ccccc21 [Compound 14r, (R)-1-(Indolin-1-yl)-2-(2-((pyridin-2-yloxy)methyl)morpholino)ethanone] | 7320 | – | –
Cc1ccnc(OC[C@H]2CN(CC(=O)N3CCc4ccccc43)CCO2)c1 [Compound 16r] | 2300 | – | –
c1ccc(OC[C@@H]2CN(CCN3CCc4ccccc43)CCO2)cc1 [Compound 19s, (S)-4-(2-(Indolin-1-yl)ethyl)-2-(phenoxymethyl)morpholine] | – | – | Ki [1]: 2310 nM
Clc1cccc(OC[C@H]2CN(CCN3CCc4ccccc43)CCO2)c1 [Compound 23r, (R)-2-((3-Chlorophenoxy)methyl)-4-(2-(indolin-1-yl)ethyl)morpholine] | – | 1670 nM | –
Clc1cccc(OC[C@@H]2CN(CCN3CCc4ccccc43)CCO2)c1 [Compound 23s, (S)-2-((3-chlorophenoxy)methyl)-4-(2-(indolin-1-yl)ethyl)morpholine] | 545 | < 1000 nM and 146 nM | –
COc1cccc(OC[C@H]2CN(CCN3CCc4ccccc43)CCO2)c1 [Compound 25r, (R)-4-(2-(Indolin-1-yl)ethyl)-2-((3-methoxyphenoxy)methyl)morpholine] | – | – | Ki (5HT2b receptor): 2690 nM
COc1cccc(OC[C@@H]2CN(CCN3CCc4ccccc43)CCO2)c1 [Compound 25s, (S)-4-(2-(Indolin-1-yl)ethyl)-2-((3-methoxyphenoxy)methyl)morpholine] | – | – | Ki (5HT2b receptor): 658 nM; Ki [1]: 6450 nM
Clc1cncc(OC[C@H]2CN(CCN3CCc4ccccc43)CCO2)c1 [Compound 27r, (R)-2-(((5-Chloropyridin-3-yl)oxy)methyl)-4-(2-(indolin-1-yl)ethyl)morpholine] | – | 3620 nM | Ki (dopamine D4 receptor; read-out: Ki dopamine D4 (relatively high affinity)): < 1000 nM
Clc1cncc(OC[C@@H]2CN(CCN3CCc4ccccc43)CCO2)c1 [Compound 27s, (S)-2-(((5-Chloropyridin-3-yl)oxy)methyl)-4-(2-(indolin-1-yl)ethyl)morpholine] | – | 90 nM and < 1000 nM | –
